# Earlier results as cited in paper PMC3127977, “No relevant cardiac, pharmacokinetic or safety interactions between roflumilast and inhaled formoterol in healthy subjects: an open-label, randomised, actively controlled study” (BMC Clinical Pharmacology, 2011).
# Details: cytochrome P450 enzyme inducer co-administered with roflumilast; cited from earlier work
structure (smiles),measurement,value
CO[C@H]1/C=C/O[C@@]2(C)Oc3c(C)c(O)c4c(O)c(c(/C=N/N5CCN(C)CC5)c(O)c4c3C2=O)NC(=O)/C(C)=C\C=C\[C@H](C)[C@H](O)[C@@H](C)[C@@H](O)[C@@H](C)[C@H](OC(C)=O)[C@@H]1C [rifampicin],reduction in tPDE4i,58%
